Assay results from PubChem BioAssay AID463111 (Johns Hopkins Ion Channel Center, 2010).
The list shows a part of the results, in another mix than the full data. Some structures show a salt or complex split into parts, the way the source records it. Active and inactive are the calls of the source.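 The calls were made as follows: active = B-score of the integrated calcium signal more than 4 SD below the library mean, with starting fluorescence not abnormally high; inactive = the rest.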

Assay: enhancers of RGS4 function in calcium signaling – cell-based, HEK293 M3R inducible RGS4, calcium flux, primary screen (AID 463111);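 as to B-score: negative B-score means reduced calcium response which marks RGS4 activation or potentiation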
Details: HEK293 M3R/inducible RGS4, carbachol calcium flux Fluo4, at 10 µM; stronger effect = lower value
Procedure, shortened: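 Material: M3R-expressing HEK293 line, RGS4 induced by doxycycline | Schedule: Overnight RGS4 induction, 30 min dye load 37 °C, 20 min compound RT | Measured by: Fluo4 fluorescence kinetic imaging of calcium | Read-out: Integrated calcium ratio converted to B score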

Structure (SMILES) | outcome | B-score
C[C@H]1OP(=O)(Oc2ccccc2)[C@H](O)[C@H](O)[C@H]1N=[N+]=[N-] (some centres not stated) | inactive | 
CN(C)CCOC(=O)C(O)(c1ccccc1)C1CCCCC1 (configuration not stated) |  | active: -9.38
O=P(Nc1nc2ccccc2s1)(c1ccccc1)c1ccccc1 | inactive | 
O=P(Nc1ccccn1)(c1ccc(Br)cc1)c1ccc(Br)cc1 | inactive | 
CN(C)C1(CNC(=O)c2ccc(Cl)c(S(N)(=O)=O)c2)CCCCC1 | inactive | 
COc1ccc(OP(C)(=O)Nc2cccc(Br)c2)cc1 (configuration not stated) | inactive | 
CP(=O)(Nc1ccc2c(c1)OCCO2)Oc1ccccc1 (configuration not stated) | inactive | 
c1nnnn1CCn1cnnn1 | inactive | 
CCOP(C)(=S)SCC(=O)NC(C)(CC)C(=O)O (configuration not stated) | inactive | 
CC(C)C(=O)NC(Sc1ccccc1)C(Cl)(Cl)Cl (configuration not stated) | inactive | 
O=P(Nc1nccs1)(c1ccccc1)c1ccccc1 | inactive | 
CP(=O)(Nc1ccc(SC(F)(F)F)cc1)Oc1ccc(F)cc1 (configuration not stated) | inactive | 
CC(=O)Nc1ccc(Oc2c([N+](=O)[O-])cc([N+](=O)[O-])cc2[N+](=O)[O-])cc1 | inactive | 
CC(=O)Nc1ccc([As](=O)(O)O)c(O)c1 | inactive | 
COc1ccc2c(c1O)-c1c(O)c(OC)cc3c1[C@H](C2)[N+](C)(C)CC3.O=[N+]([O-])c1cc([N+](=O)[O-])c([O-])c([N+](=O)[O-])c1[O-] | inactive | 
C[C@H]1OP(=O)(Oc2ccccc2)C[C@@H]2O[C@@H]21 (some centres not stated) | inactive | 
C[C@@H]1C=CCP(=O)(Oc2ccccc2)O1 (some centres not stated) | inactive | 
O=C(OCCN1CCN(CCOCc2ccccc2)CC1)C(O)(c1ccccc1)c1ccccc1 | inactive | 
O=C(OC1CN2CCC1CC2)c1ccc([N+](=O)[O-])cc1 (configuration not stated) | inactive | 
CC(=O)c1ccc(N2CC2c2ccncc2)cc1 (configuration not stated) | inactive | 
CC(C)c1ccc(OP(C)(=O)Nc2ccc(SC(F)(F)F)cc2)cc1 (configuration not stated) | inactive | 
CC(C)(C)C(=O)NC(Sc1ccccc1)C(Cl)(Cl)Cl (configuration not stated) | inactive | 
CP(=O)(Nc1ccccc1F)Oc1ccccc1 (configuration not stated) | inactive | 

Structure (SMILES) | outcome | B-score
CCOc1ccc(C2=NCC(CBr)S2)cc1 (configuration not stated) | inactive | 
O=P1(Nc2nc3ccc(Cl)cc3s2)COc2ccccc2O1 (configuration not stated) | inactive | 
O=[N+]([O-])c1cc([N+](=O)[O-])c(OC2CCCCC2O)c([N+](=O)[O-])c1 (configuration not stated) | inactive | 
CCCCCOc1ccc(NP(C)(=O)Oc2ccc(Cl)cc2Cl)cc1 (configuration not stated) | inactive | 
CN(C)C(=O)Oc1noc2ccccc12 | inactive | 
CP(=O)(Nc1ccccc1)Oc1ccc(F)cc1 (configuration not stated) | inactive | 
CCN(CC)CCCOC(=O)C(O)(c1ccccc1)C1CCCCC1 (configuration not stated) |  | active: -7.6
CCC(=O)N1C2C3N(C(=O)CC)C1C1N(C(=O)CC)C(C(N1C(=O)CC)N3C(=O)CC)N2C(=O)CC | inactive | 
O=C(OC1CN2CCC1CC2)c1ccccc1 (configuration not stated) | inactive | 
Cc1ccc(OP(=O)(Nc2ccccn2)Oc2ccc(C)cc2)cc1 | inactive | 
CC(=O)NC(SC(=S)N(CC(C)C)CC(C)C)C(Cl)(Cl)Cl (configuration not stated) | inactive | 
COC(=O)c1cc2c(s1)N=C(c1ccccc1)N(C)P2(=O)N1CCOCC1 (configuration not stated) | inactive | 
COc1ccc(OP(C)(=O)Nc2ccc(SC(F)(F)F)cc2)cc1 (configuration not stated) | inactive | 
CCOC(=O)c1ccc(NP(C)(=O)Oc2ccc(F)cc2)cc1 (configuration not stated) | inactive | 
CCOC(=O)NC(Sc1ccccc1)C(Cl)(Cl)Cl (configuration not stated) | inactive | 
Cc1ccc(NP(=O)(Oc2cccc(C)c2)Oc2cccc(C)c2)nc1 | inactive | 
c1ccc(-c2nn[nH]n2)c(-c2nn[nH]n2)c1 | inactive | 
CCNC(=S)/N=C(\N)N[N+](=O)[O-] | inactive | 
O=C(NC1CCS(=O)(=O)C1)NP(=S)(Oc1ccccc1)Oc1ccccc1 (configuration not stated) | inactive | 
CCOP1(=S)c2c(C)nn(CCC#N)c2N=C(c2ccc(F)cc2)N1C (configuration not stated) | inactive | 
N#CCCN(C(=O)COC(=O)C(O)(c1ccccc1)c1ccccc1)c1ccc(F)cc1 | inactive | 
CC1=NCCc2c1[nH]c1ccccc21.O=[N+]([O-])c1cc([N+](=O)[O-])c(O)c([N+](=O)[O-])c1 | inactive | 
CN(C(=O)Cc1ccc(Cl)c(Cl)c1)[C@H]1CC[C@@]2(CCCO2)C[C@@H]1N1CCCC1 | inactive | 

Structure (SMILES) | outcome | B-score
O=[N+]([O-])c1ccc2c(c1)nnn2O | inactive | 
CN(C)C(=O)c1cc([N+](=O)[O-])cc2c1-c1c(cc([N+](=O)[O-])cc1[N+](=O)[O-])C2=O | inactive | 
NC(=O)Nc1ccc([As](=O)(O)O)cc1 | inactive | 
Nc1ccccc1[As](=O)(O)c1ccccc1 | inactive | 
O=C(O)COc1ccc([As](=O)(O)O)cc1[N+](=O)[O-] | inactive | 
O=P(Nc1nccs1)(Oc1ccccc1)Oc1ccccc1 | inactive | 
O=P(Nc1nccs1)(c1ccccc1)c1nc2ccccc2s1 (configuration not stated) | inactive | 
CCOP1(=S)c2c(C)nn(CCC#N)c2N=C(c2ccccc2F)N1C (configuration not stated) | inactive | 
O=C(O)c1cccc(Nc2c([N+](=O)[O-])cc([N+](=O)[O-])cc2[N+](=O)[O-])c1 | inactive | 
CS(=O)(=O)c1cc([N+](=O)[O-])c2no[n+]([O-])c2c1 | inactive | 
CCOP(=O)(Nc1cccc2ccccc12)OCC | inactive | 
Nc1cccc2c([As](=O)(O)O)cccc12 | inactive | 
Cc1ccc(NCCc2c([N+](=O)[O-])cc([N+](=O)[O-])cc2[N+](=O)[O-])cc1 | inactive | 
Cc1cc(C)cc(OP(C)(=O)Nc2ccccn2)c1 (configuration not stated) | inactive | 
CP(=O)(Nc1cccc(Br)c1)Oc1ccccc1 (configuration not stated) | inactive | 
Cc1ccc(C)c(NP(C)(=O)Oc2ccccc2)c1 (configuration not stated) | inactive | 
CCCOP(=S)(Nc1nc(N)cc(=O)[nH]1)OCCC | inactive | 
Cc1cc(C)cc(OP(C)(=O)Nc2ccc(C)cc2C)c1 (configuration not stated) | inactive | 
Cc1cccc(OCC(=O)OC2CN3CCC2CC3)c1 (configuration not stated) | inactive | 
O=[As](O)(c1cccc(O)c1)c1cccc(O)c1 | inactive | 
CCOC(=O)c1ccc(NP(C)(=O)Oc2cc(C)cc(C)c2)cc1 (configuration not stated) | inactive | 
CS(=O)(=O)c1ccc(Cl)c(NC(=O)COC(=O)C(O)(c2ccccc2)c2ccccc2)c1 | inactive | 
COc1ccccc1OP(C)(=O)Nc1cccc(Br)c1 (configuration not stated) | inactive | 

Structure (SMILES) | outcome | B-score
O=[As](O)(O)c1cccnc1 | inactive | 
COc1cc(C(=O)NCC2(N3CCOCC3)CCCCC2)cc(Cl)c1OC(C)C | inactive | 
CC(C)/C=N\N=C(\N)N[N+](=O)[O-] | inactive | 
CN(C(=O)Cc1ccc(Cl)c(Cl)c1)[C@@H]1CCCC[C@H]1N1CCCC1 | inactive | 
CC1(CBr)Cn2c(nc3ccccc3c2=O)S1 (configuration not stated) | inactive | 
O=[As](O)(c1ccccc1Br)c1ccccc1Br | inactive | 
O=[N+]([O-])c1cc([N+](=O)[O-])c(-c2cnn(-c3ccccc3)c2)c([N+](=O)[O-])c1 | inactive | 
COc1ccccc1CNC(=O)COC(=O)C(O)(c1ccccc1)c1ccccc1 | inactive | 
CC(C)(C)C(=O)NC(Sc1ncccn1)C(Cl)(Cl)Cl (configuration not stated) | inactive | 
Clc1n[nH]nc1-c1nn[nH][15n]1 | inactive | 
O=[N+]([O-])c1cc([N+](=O)[O-])c(-n2nnc3ccccc32)c([N+](=O)[O-])c1 | inactive | 
CCOP(=O)(NC(=NC(C)c1ccccc1)NC(C)c1ccccc1)OCC (configuration not stated) | inactive | 
O=P1(Nc2ccccn2)COc2ccccc2OC1 | inactive | 
CCC1=CC2Cc3nc4ccc(Cl)cc4c(N)c3C(C1)C2 (configuration not stated) | inactive | 
CCOP(=O)(Nc1ccc(C)cn1)OCC | inactive | 
CN(CCCl)Cc1cc(Cl)c(NC2=NCCN2)c(Cl)c1 | inactive | 
CCCOc1ccc(NP(C)(=O)Oc2ccc(Cl)cc2)cc1 (configuration not stated) | inactive | 
Nc1cccc([As](=O)(O)c2ccccc2)c1 | inactive | 
CP(=O)(Nc1ccc(SC(F)(F)F)cc1)Oc1ccccc1 (configuration not stated) | inactive | 
O=[As](O)(c1cccs1)c1cccs1 | inactive | 
Cc1ccc(OCC(=O)OC2CN3CCC2CC3)cc1 (configuration not stated) | inactive | 
O=P1(Nc2ccc(Br)cn2)COc2ccccc2OC1 | inactive | 
COc1ccccc1OP(C)(=O)Nc1c(C)cccc1C (configuration not stated) | inactive | 

Structure (SMILES) | outcome | B-score
CN1CCCCC1COC(=O)C1(O)c2ccccc2CCc2ccccc21 (configuration not stated) |  | active: -7.78
O=P1(Nc2ncccn2)COc2ccccc2OC1 | inactive | 
CCOC(=O)C(CC)C1=NC(C)(C)Cc2ccccc21.O=[N+]([O-])c1cc([N+](=O)[O-])c(O)c([N+](=O)[O-])c1 (configuration not stated) | inactive | 
CN(C)C1(CNC(=O)c2ccc(S(C)(=O)=O)cc2)CCCCC1 | inactive | 
O=[N+]([O-])c1cc([N+](=O)[O-])c(Nc2nnnn2CCO)c([N+](=O)[O-])c1 | inactive | 
O=C(/C=C/c1ccccc1)OC1CN2CCC1CC2 (configuration not stated) | inactive | 
CC1CCC(C(C)C)C(OP(=O)(Nc2ccccn2)c2ccccc2)C1 (configuration not stated) | inactive | 
Cc1ccc(C(=O)OC2CN3CCC2CC3)cc1 (configuration not stated) | inactive | 
Cc1nn(-c2ccccc2)c2c1P(=O)(N1CCOCC1)N(C)C(c1ccccc1)=N2 (configuration not stated) | inactive | 
COc1cc(C2NCCC3(OCCO3)C2(C)C)cc(OC)c1OC.O=[N+]([O-])c1cc([N+](=O)[O-])c(O)c([N+](=O)[O-])c1 (configuration not stated) | inactive | 
COc1ccccc1OP(C)(=O)Nc1ccccc1 (configuration not stated) | inactive | 
O=P(Nc1ccccn1)(c1cccc2ccccc12)c1cccc2ccccc12 | inactive | 
Cc1cc(SC(NC=O)C(Cl)(Cl)Cl)ncn1 (configuration not stated) | inactive | 
O=[N+]([O-])c1ccc(Nc2ccc(Oc3ccc([N+](=O)[O-])cc3[N+](=O)[O-])cc2)c([N+](=O)[O-])c1 | inactive | 
CP(=O)(Nc1ccccc1Br)Oc1ccccc1 (configuration not stated) | inactive | 
CP(=S)(Nn1cnnc1)Oc1ccccc1 (configuration not stated) | inactive | 
CCOC(=O)Nc1cccc([As](=O)(O)O)c1 | inactive | 
Cc1cc(SC(NC(=O)c2ccccc2)C(Cl)(Cl)Cl)nc(C(C)C)n1 (configuration not stated) | inactive | 
CCCCOc1ccc(C(=O)NCC2(N3CCCCC3)CCCCC2)cc1OC | inactive | 
CCOC(=O)Nc1ccc([As](=O)(O)O)c(O)c1 | inactive | 
